Measurements: patent US7368429B2, “Peptide specificity of anti-myelin basic protein and the administration of myelin basic protein peptides to multiple sclerosis patients” (The Governors of the University of Alberta, priority 1991, dated 2008)

Test system: anti-MBP purified from CSF of MS patients
Assay: In vitro neutralization of purified anti-MBP (liquid phase assay, then solid phase radioimmunoassay)
Format: binding, human
Conditions: negative antigen controls, concentrations as high as 1000 ng
From the text: Purified MBP was coupled to CNBr-activated Sepharose 4B (Pharmacia™) according to the manufacturer's instructions. Purified CSF IgG containing increased anti-MBP levels from 35 patients with acute MS relapses was used to isolate anti-MBP by MBP-Sepharose affinity chromatography (Warren, K. G. and Catz, I., J Neurol Sci 103:90-96, 1991). Purified anti-MBP samples were compared with the initial IgG source by poly-acrylamide gel electrophoresis. When purified anti-MBP samples were absorbed to zero with MBP, the post-absorption supernatants contained no residual IgG indicating the purity of anti-MBP.
Constant amounts of anti-MBP (15 radioactivity binding units corresponding to 100 for scale expansion purposes=% 0) were incubated with increasing amounts of h-MBP (0-1000 ng) or individual peptides of MBP (0-10,000 ng) in a liquid phase assay and after 1.5 hours incubation, free anti-MBP levels were determined in all mixtures. […]
Anti-MBP levels were determined by a solid phase radioimmunoassay with human MBP (Warren, K. G. and Catz, I., Ann Neurol 209:20-25, 1986; Warren, K. G. and Catz, I., Ann Neurol 21:183-187, 1987; and Warren, K. G. and Catz, I., J Neurol Sci 91:143-151, 1989). Free anti-MBP levels were measured in all fractions from affinity chromatography and in all neutralization mixtures. […]

human serum albumin: negative antigen control [reference compound]
reaction with purified anti-MBP: did not react
